Experimental data as given in patent US20100016241A1 (Genentech, published 2010).

Biological target: the molecule itself
Assay: sulfo-EGS crosslinking of serum-starved 293, H441, MDA-MB-435 and A549 cells, Met blot (self-association)
Description: Crosslinking studies were performed as previously described with modifications (Blechman et al., 1995). A549, H441, MDA-MB-435, and 293 cells were serum starved for 2 hrs with 0.5% BSA. The media was removed and replaced with PBS. Cells were then treated with the crosslinking agent sulfo-EGS (Pierce) at increasing concentrations according to the manufacturer's instructions. Similarly, 293 cells were plated into 6-well plates and transfected with 0.1-4 μg of the indicated constructs using Lipofectamine 2000 (Invitrogen). Twenty-four hours later, the media was replaced with PBS and cells were crosslinked with sulfo-EGS. Cells were then lysed with 1% NP40 lysis buffer with protease and phosphatase inhibitors. 10 μg of lysates in reducing sample buffer were then analyzed immediately on 8% or 4-12% Tris-glycine gels, transferred to nitrocellulose membranes, and blocked with 5% milk for 1 hour. Membranes were probed with 1:1000 Met C-12 (Santa Cruz) or 1:5000 V5 antibody overnight at 4° C. with rocking. After incubation of 1:5000 secondary antibodies, proteins were detected with ECL-Plus. […] 500 μg of crosslinked lysates were immunoprecipitated with either V5 or Flag antibody, analyzed on 8% Tris-glycine gels, transferred to nitrocellulose membranes, and immunoblotted with either 1:5000 V5 or 1:1000 Flag (Sigma) antibodies. Proteins were detected with ECL-Plus. […]

B1: endogenous Met receptor (c-Met) of cell lines (receptor, human, UniProt P08581 25-1390, looked up)
chain: ECKEALAKSEMNVNMKYQLPNFTAETPIQNVILHEHHIFLGATNYIYVLNEEDLQKVAEYKTGPVLEHPDCFPCQDCSSKANLSGGVWKDNINMALVVDTYYDDQLISCGSVNRGTCQRHVFPHNHTADIQSEVHCIFSPQIEEPSQCPDCVVSALGAKVLSSVKDRFINFFVGNTINSSYFPDHPLHSISVRRLKETKDGFMFLTDQSYIDVLPEFRDSYPIKYVHAFESNNFIYFLTVQRETLDAQTFHTRIIRFCSINSGLHSYMEMPLECILTEKRKKRSTKKEVFNILQAAYVSKPGAQLARQIGASLNDDILFGVFAQSKPDSAEPMDRSAMCAFPIKYVNDFFNKIVNKNNVRCLQHFYGPNHEHCFNRTLLRNSSGCEARRDEYRTEFTTALQRVDLFMGQFSEVLLTSISTFIKGDLTIANLGTSEGRFMQVVVSRSGPSTPHVNFLLDSHPVSPEVIVEHTLNQNGYTLVITGKKITKIPLNGLGCRHFQSCSQCLSAPPFVQCGWCHDKCVRSEECLSGTWTQQICLPAIYKVFPNSAPLEGGTRLTICGWDFGFRRNNKFDLKKTRVLLGNESCTLTLSESTMNTLKCTVGPAMNKHFNMSIIISNGHGTTQYSTFSYVDPVITSISPKYGPMAGGTLLTLTGNYLNSGNSRHISIGGKTCTLKSVSNSILECYTPAQTISTEFAVKLKIDLANRETSIFSYREDPIVYEIHPTKSFISGGSTITGVGKNLNSVSVPRMVINVHEAGRNFTVACQHRSNSEIICCTTPSLQQLNLQLPLKTKAFFMLDGILSKYFDLIYVHNPVFKPFEKPVMISMGNENVLEIKGNDIDPEAVKGEVLKVGNKSCENIHLHSEAVLCTVPNDLLKLNSELNIEWKQAISSTVLGKVIVQPDQNFTGLIAGVVSISTALLLLLGFFLWLKKRKQIKDLGSELVRYDARVHTPHLDRLVSARSVSPTTEMVSNESVDYRATFPEDQFPNSSQNGSCRQVQYPLTDMSPILTSGDSDISSPLLQNTVHIDLSALNPELVQAVQHVVIGPSSLIVHFNEVIGRGHFGCVYHGTLLDNDGKKIHCAVKSLNRITDIGEVSQFLTEGIIMKDFSHPNVLSLLGICLRSEGSPLVVLPYMKHGDLRNFIRNETHNPTVKDLIGFGLQVAKGMKYLASKKFVHRDLAARNCMLDEKFTVKVADFGLARDMYDKEYYSVHNKTGAKLPVKWMALESLQTQKFTTKSDVWSFGVLLWELMTRGAPPYPDVNTFDITVYLLQGRRLLQPEYCPDPLYEVMLKCWHPKAEMRPSFSELVSRISAIFSTFIGEHYVHVNATYVNVKCVAPYPSLLSSEDNADDEVDTRPASFWETS
notes: whole, on cells; Processed on the cell surface into disulfide-linked α and β subunits; In the 5D5 immunoprecipitation it stood in lysates of 293 cells; also called Met-M; Met-D
- binding result: binds
